Laboratory results taken from ChEMBL document CHEMBL5321226, “Structure-directed identification of pyridine-2-methylamine derivatives as MmpL3 inhibitors for use as antitubercular agents” (Eur J Med Chem, 2023).

Protein sequences, listed by entry. Tags and fused reporters are not part of them. Lines headed by an entry give the natural chain unless they say otherwise; changes in a name come on top.
UniProt Q12809: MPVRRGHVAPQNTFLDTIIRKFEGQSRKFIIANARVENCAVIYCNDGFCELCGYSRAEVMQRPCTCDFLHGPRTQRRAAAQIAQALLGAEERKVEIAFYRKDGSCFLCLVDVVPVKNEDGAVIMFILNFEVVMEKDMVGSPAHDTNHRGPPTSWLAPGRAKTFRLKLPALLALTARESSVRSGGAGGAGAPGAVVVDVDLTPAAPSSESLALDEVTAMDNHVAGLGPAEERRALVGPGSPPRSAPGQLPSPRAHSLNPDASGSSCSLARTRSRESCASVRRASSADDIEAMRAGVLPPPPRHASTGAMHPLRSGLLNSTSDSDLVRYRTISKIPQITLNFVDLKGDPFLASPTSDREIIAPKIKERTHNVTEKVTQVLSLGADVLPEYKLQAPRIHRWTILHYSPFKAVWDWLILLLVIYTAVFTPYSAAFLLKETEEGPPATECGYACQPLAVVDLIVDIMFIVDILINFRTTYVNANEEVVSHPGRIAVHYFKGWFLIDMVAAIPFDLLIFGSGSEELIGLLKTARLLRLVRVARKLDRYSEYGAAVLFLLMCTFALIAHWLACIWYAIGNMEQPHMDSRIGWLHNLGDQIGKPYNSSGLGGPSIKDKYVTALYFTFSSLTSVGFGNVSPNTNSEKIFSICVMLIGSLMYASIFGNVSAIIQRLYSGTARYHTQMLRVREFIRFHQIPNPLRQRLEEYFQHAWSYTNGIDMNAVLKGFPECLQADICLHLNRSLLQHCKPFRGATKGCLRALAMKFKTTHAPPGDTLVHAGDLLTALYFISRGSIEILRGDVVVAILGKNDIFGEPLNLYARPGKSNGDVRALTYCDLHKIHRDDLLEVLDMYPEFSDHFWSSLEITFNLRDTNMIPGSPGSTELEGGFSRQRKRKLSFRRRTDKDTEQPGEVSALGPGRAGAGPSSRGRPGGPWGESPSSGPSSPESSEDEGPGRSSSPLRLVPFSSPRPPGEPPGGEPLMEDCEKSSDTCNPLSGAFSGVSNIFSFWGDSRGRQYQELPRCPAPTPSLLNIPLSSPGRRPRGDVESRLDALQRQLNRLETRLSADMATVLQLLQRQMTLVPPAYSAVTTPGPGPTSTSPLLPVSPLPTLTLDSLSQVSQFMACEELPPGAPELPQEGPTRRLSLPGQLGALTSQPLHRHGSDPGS

Biological target: Voltage-gated inwardly rectifying potassium channel KCNH2 (Homo sapiens, UniProt Q12809)
Test: Inhibition of human ERG at 300 nM by patch-clamp electrophysiology assay
Format: toxicity
Conditions: 0.3 µM

Compound: COc1cc(N)c(Cl)cc1C(=O)N[C@H]1CCN(CCCOc2ccc(F)cc2)C[C@H]1OC [REL-CISAPRIDE]
- inhibition (INH): 97.2%
